The entries are a selection whose mix differs from that of the whole data set. Activity calls are given as the source filed them. The calls were made as follows: active = hit-call score of the fitted dose curve at least 0.9, where 1 is the maximum; inactive = score below 0.9.
Tested on: not listed separately
Experiment: ATG_SREBP_CIS: Attagene CIS-FACTORIAL HepG2 Assay for human Sterol Regulatory Element Binding (SREBP) (AID 2282962)
Conditions: HepG2 Attagene cis-factorial SREBP reporter, mRNA; actives raise or lower the signal
Method in brief: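 HepG2 cells transiently transfected with multiplexed cis-element reporter units report endogenous transcription factor activity. After 24 h of chemical exposure, reporter mRNA was quantified by RT-PCR, 6-FAM labelling, HpaI digestion and capillary electrophoresis; bidirectional fits used DMSO as baseline.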

Chains of the proteins cited; added tags and fusions are not shown.
UniProt P40763, whole entry, looked up: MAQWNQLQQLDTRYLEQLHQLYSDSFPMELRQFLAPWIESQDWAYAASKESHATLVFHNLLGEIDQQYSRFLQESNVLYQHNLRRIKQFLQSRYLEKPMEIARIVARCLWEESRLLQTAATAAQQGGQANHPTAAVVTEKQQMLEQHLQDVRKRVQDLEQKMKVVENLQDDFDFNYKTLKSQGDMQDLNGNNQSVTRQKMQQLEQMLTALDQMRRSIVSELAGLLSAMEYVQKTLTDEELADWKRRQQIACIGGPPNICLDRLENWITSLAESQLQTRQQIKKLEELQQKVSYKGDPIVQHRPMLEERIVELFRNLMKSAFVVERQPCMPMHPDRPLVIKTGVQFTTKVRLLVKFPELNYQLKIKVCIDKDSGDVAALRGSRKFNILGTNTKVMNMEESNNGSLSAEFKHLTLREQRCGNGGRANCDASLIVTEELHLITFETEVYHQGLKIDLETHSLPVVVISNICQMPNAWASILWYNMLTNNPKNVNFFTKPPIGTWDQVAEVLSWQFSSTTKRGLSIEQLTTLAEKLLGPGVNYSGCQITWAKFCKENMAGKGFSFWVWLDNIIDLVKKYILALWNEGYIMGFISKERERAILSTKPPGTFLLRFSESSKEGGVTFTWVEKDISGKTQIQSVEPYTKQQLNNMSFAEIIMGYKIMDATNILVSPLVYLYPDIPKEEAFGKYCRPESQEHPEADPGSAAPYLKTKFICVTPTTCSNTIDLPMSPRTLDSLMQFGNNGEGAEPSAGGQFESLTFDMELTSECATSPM

For `ClP(Cl)c1ccccc1`, which outcome is on record?
The outcome was “inactive”.

With `CC(C)OP(=S)(OC(C)C)SCCNS(=O)(=O)c1ccccc1` as the molecule, how does the outcome read?
The outcome was “inactive”.

With `CCCCC(CC)CO[P+](=O)OCC(CC)CCCC` (stereo not given) as the molecule, how does the outcome read?
The outcome was “inactive”.

For `CCCCOP(OCCCC)OCCCC`, which outcome is on record?
The outcome was “inactive”.

Which outcome does the source give for `O=P(Cl)(Oc1ccccc1)Oc1ccccc1` here?
Its outcome is “inactive”.

For `O=C(Cl)Oc1ccccc1`, which outcome is on record?
Its outcome is “inactive”.

For `Cc1cc([N+](=O)[O-])cc([N+](=O)[O-])c1O`, which outcome is on record?
Its outcome is “inactive”.

For `CCCCO[P+](=O)OCCCC`, which outcome is on record?
Its outcome is “inactive”.

For `O=[p+]1oc2ccccc2c2ccccc21` (stereo not given), which outcome is on record?
Its outcome is “inactive”.

Which outcome does the source give for `O=[P+](Oc1ccccc1)Oc1ccccc1` here?
Its outcome is “inactive”.

For `O=[N+]([O-])c1ccc([N+](=O)[O-])cc1`, which outcome is on record?
The outcome was “inactive”.

Which AC50 does the source give for `CN(C(=O)Cc1cccc2occc12)[C@H]1CC[C@@]2(CCCO2)C[C@@H]1N1CCCC1` here?
Its AC50 is active: 100 µM.

For `O=C(Cl)OCCOC(=O)Cl`, which outcome is on record?
Its outcome is “inactive”.

Which outcome does the source give for `N#CSc1ccc([N+](=O)[O-])cc1[N+](=O)[O-]` here?
The outcome was “inactive”.

With `O=C1C2CC=CCC2C(=O)N1SC(Cl)(Cl)C(Cl)Cl` (stereo not given) as the molecule, how does the outcome read?
Its outcome is “inactive”.

Which AC50 does the source give for `CC(C)CCCCCCCOP(OCCCCCCCC(C)C)Oc1ccccc1` here?
Its AC50 is active: 100 µM.

With `O=[As]c1ccccc1` (stereo not given) as the molecule, how does the AC50 read?
The AC50 was active: 0.412 µM.

Target: Signal transducer and activator of transcription 3 (Homo sapiens) (UniProt P40763)
Experiment: ATG_STAT3_CIS: Attagene CIS-FACTORIAL HepG2 Assay for human Signal Transducer and Activator of Transcription 3 (STAT3) (AID 2282963)
Conditions: HepG2, Attagene cis-factorial STAT3 reporter transcription; actives raise or lower the signal
Method in brief: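 Values derive from bidirectional fits relative to DMSO of reporter mRNA levels, measured by RT-PCR with capillary electrophoresis, in HepG2 cells carrying transiently transfected cis-regulated reporter units and exposed 24 h.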

Which outcome does the source give for `ClP(Cl)c1ccccc1` here?
Its outcome is “inactive”.

Which outcome does the source give for `CC(C)OP(=S)(OC(C)C)SCCNS(=O)(=O)c1ccccc1` here?
Its outcome is “inactive”.

With `CCCCC(CC)CO[P+](=O)OCC(CC)CCCC` (stereo not given) as the molecule, how does the outcome read?
The outcome was “inactive”.

With `CCCCOP(OCCCC)OCCCC` as the molecule, how does the outcome read?
Its outcome is “inactive”.

Which outcome does the source give for `O=P(Cl)(Oc1ccccc1)Oc1ccccc1` here?
Its outcome is “inactive”.

Which outcome does the source give for `O=C(Cl)Oc1ccccc1` here?
The outcome was “inactive”.

With `Cc1cc([N+](=O)[O-])cc([N+](=O)[O-])c1O` as the molecule, how does the outcome read?
Its outcome is “inactive”.

Which outcome does the source give for `CCCCO[P+](=O)OCCCC` here?
Its outcome is “inactive”.

With `O=[p+]1oc2ccccc2c2ccccc21` (stereo not given) as the molecule, how does the outcome read?
Its outcome is “inactive”.

Which outcome does the source give for `O=[P+](Oc1ccccc1)Oc1ccccc1` here?
The outcome was “inactive”.

For `O=[N+]([O-])c1ccc([N+](=O)[O-])cc1`, which outcome is on record?
Its outcome is “inactive”.

With `CN(C(=O)Cc1cccc2occc12)[C@H]1CC[C@@]2(CCCO2)C[C@@H]1N1CCCC1` as the molecule, how does the outcome read?
The outcome was “inactive”.

With `O=C(Cl)OCCOC(=O)Cl` as the molecule, how does the outcome read?
The outcome was “inactive”.

For `N#CSc1ccc([N+](=O)[O-])cc1[N+](=O)[O-]`, which outcome is on record?
The outcome was “inactive”.

With `O=C1C2CC=CCC2C(=O)N1SC(Cl)(Cl)C(Cl)Cl` (stereo not given) as the molecule, how does the outcome read?
Its outcome is “inactive”.

Which outcome does the source give for `CC(C)CCCCCCCOP(OCCCCCCCC(C)C)Oc1ccccc1` here?
The outcome was “inactive”.

Which AC50 does the source give for `O=[As]c1ccccc1` (stereo not given) here?
The AC50 was active: 600 nM.

Tested on: not listed separately
Experiment: ATG_TA_CIS: Attagene CIS-FACTORIAL HepG2 Assay for human TA Basal Promoter (AID 2282964)
Conditions: HepG2 Attagene CIS-factorial TA basal promoter reporter; actives raise or lower the signal
Method in brief: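 Read-out: fluorescent reporter-transcript fragments resolved by capillary electrophoresis after RT-PCR and HpaI digestion. Source: HepG2 cells carrying transiently transfected multi-reporter cis constructs, treated 24 h. Endpoint fitted bidirectionally relative to DMSO.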

For `ClP(Cl)c1ccccc1`, which outcome is on record?
Its outcome is “inactive”.

Which outcome does the source give for `CC(C)OP(=S)(OC(C)C)SCCNS(=O)(=O)c1ccccc1` here?
The outcome was “inactive”.

Which outcome does the source give for `CCCCC(CC)CO[P+](=O)OCC(CC)CCCC` (stereo not given) here?
The outcome was “inactive”.

For `CCCCOP(OCCCC)OCCCC`, which outcome is on record?
Its outcome is “inactive”.

For `O=P(Cl)(Oc1ccccc1)Oc1ccccc1`, which outcome is on record?
Its outcome is “inactive”.

With `O=C(Cl)Oc1ccccc1` as the molecule, how does the outcome read?
Its outcome is “inactive”.

With `Cc1cc([N+](=O)[O-])cc([N+](=O)[O-])c1O` as the molecule, how does the outcome read?
The outcome was “inactive”.

With `CCCCO[P+](=O)OCCCC` as the molecule, how does the outcome read?
The outcome was “inactive”.

With `O=[p+]1oc2ccccc2c2ccccc21` (stereo not given) as the molecule, how does the outcome read?
The outcome was “inactive”.

Which outcome does the source give for `O=[P+](Oc1ccccc1)Oc1ccccc1` here?
The outcome was “inactive”.

For `O=[N+]([O-])c1ccc([N+](=O)[O-])cc1`, which outcome is on record?
Its outcome is “inactive”.

For `CN(C(=O)Cc1cccc2occc12)[C@H]1CC[C@@]2(CCCO2)C[C@@H]1N1CCCC1`, which outcome is on record?
Its outcome is “inactive”.

Which outcome does the source give for `O=C(Cl)OCCOC(=O)Cl` here?
The outcome was “inactive”.

With `N#CSc1ccc([N+](=O)[O-])cc1[N+](=O)[O-]` as the molecule, how does the outcome read?
Its outcome is “inactive”.

Which outcome does the source give for `O=C1C2CC=CCC2C(=O)N1SC(Cl)(Cl)C(Cl)Cl` (stereo not given) here?
The outcome was “inactive”.

With `CC(C)CCCCCCCOP(OCCCCCCCC(C)C)Oc1ccccc1` as the molecule, how does the outcome read?
The outcome was “inactive”.

Which outcome does the source give for `O=[As]c1ccccc1` (stereo not given) here?
The outcome was “inactive”.

Tested on: not listed separately
Experiment: ATG_TAL_CIS: Attagene CIS-FACTORIAL HepG2 Assay for human TAL Basal Promoter (AID 2282966);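 also: background control endpoint measuring basal TAL promoter reporter mRNA not a specific factor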
Conditions: HepG2 Attagene cis-factorial TAL promoter reporter; actives raise or lower the signal
Method in brief: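 In this cell-based multiplex, HepG2 liver cells bearing cis-promoter reporter constructs are dosed for 24 hours. Total RNA is reverse-transcribed and amplified, labelled fragments are sized by capillary electrophoresis, and signal changes are fitted bidirectionally versus DMSO.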

For `ClP(Cl)c1ccccc1`, which outcome is on record?
Its outcome is “inactive”.

With `CC(C)OP(=S)(OC(C)C)SCCNS(=O)(=O)c1ccccc1` as the molecule, how does the outcome read?
Its outcome is “inactive”.

For `CCCCC(CC)CO[P+](=O)OCC(CC)CCCC` (stereo not given), which outcome is on record?
The outcome was “inactive”.

For `CCCCOP(OCCCC)OCCCC`, which outcome is on record?
The outcome was “inactive”.

Which outcome does the source give for `O=P(Cl)(Oc1ccccc1)Oc1ccccc1` here?
Its outcome is “inactive”.

Which outcome does the source give for `O=C(Cl)Oc1ccccc1` here?
Its outcome is “inactive”.

Which outcome does the source give for `Cc1cc([N+](=O)[O-])cc([N+](=O)[O-])c1O` here?
The outcome was “inactive”.

With `CCCCO[P+](=O)OCCCC` as the molecule, how does the outcome read?
The outcome was “inactive”.

For `O=[p+]1oc2ccccc2c2ccccc21` (stereo not given), which outcome is on record?
Its outcome is “inactive”.

Which outcome does the source give for `O=[P+](Oc1ccccc1)Oc1ccccc1` here?
The outcome was “inactive”.

With `O=[N+]([O-])c1ccc([N+](=O)[O-])cc1` as the molecule, how does the outcome read?
The outcome was “inactive”.

For `CN(C(=O)Cc1cccc2occc12)[C@H]1CC[C@@]2(CCCO2)C[C@@H]1N1CCCC1`, which outcome is on record?
The outcome was “inactive”.

For `O=C(Cl)OCCOC(=O)Cl`, which outcome is on record?
The outcome was “inactive”.

For `N#CSc1ccc([N+](=O)[O-])cc1[N+](=O)[O-]`, which outcome is on record?
The outcome was “inactive”.

For `O=C1C2CC=CCC2C(=O)N1SC(Cl)(Cl)C(Cl)Cl` (stereo not given), which outcome is on record?
Its outcome is “inactive”.

With `CC(C)CCCCCCCOP(OCCCCCCCC(C)C)Oc1ccccc1` as the molecule, how does the outcome read?
Its outcome is “inactive”.

For `O=[As]c1ccccc1` (stereo not given), which outcome is on record?
Its outcome is “inactive”.

Tested on: not listed separately
Experiment: ATG_TGFb_CIS: Attagene CIS-FACTORIAL HepG2 Assay for human Transforming Growth Factor (TGF) (AID 2282967)
Conditions: HepG2 Attagene CIS TGFb reporter, mRNA transcription; actives raise or lower the signal
Method in brief: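 Transient MRTU transfection of HepG2 (FuGene 6). Dose 24 h. TriZol RNA, oligo(dT) RT, PCR, 6-FAM primer extension, HpaI cut, CE. Bidirectional fit, DMSO = baseline.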

For `ClP(Cl)c1ccccc1`, which outcome is on record?
Its outcome is “inactive”.

With `CC(C)OP(=S)(OC(C)C)SCCNS(=O)(=O)c1ccccc1` as the molecule, how does the outcome read?
Its outcome is “inactive”.

Which outcome does the source give for `CCCCC(CC)CO[P+](=O)OCC(CC)CCCC` (stereo not given) here?
The outcome was “inactive”.

Which outcome does the source give for `CCCCOP(OCCCC)OCCCC` here?
Its outcome is “inactive”.

With `O=P(Cl)(Oc1ccccc1)Oc1ccccc1` as the molecule, how does the outcome read?
Its outcome is “inactive”.

With `O=C(Cl)Oc1ccccc1` as the molecule, how does the outcome read?
Its outcome is “inactive”.

For `Cc1cc([N+](=O)[O-])cc([N+](=O)[O-])c1O`, which outcome is on record?
The outcome was “inactive”.

Which outcome does the source give for `CCCCO[P+](=O)OCCCC` here?
Its outcome is “inactive”.

For `O=[p+]1oc2ccccc2c2ccccc21` (stereo not given), which outcome is on record?
Its outcome is “inactive”.

Which outcome does the source give for `O=[P+](Oc1ccccc1)Oc1ccccc1` here?
Its outcome is “inactive”.

Which outcome does the source give for `O=[N+]([O-])c1ccc([N+](=O)[O-])cc1` here?
The outcome was “inactive”.

With `CN(C(=O)Cc1cccc2occc12)[C@H]1CC[C@@]2(CCCO2)C[C@@H]1N1CCCC1` as the molecule, how does the outcome read?
The outcome was “inactive”.

With `O=C(Cl)OCCOC(=O)Cl` as the molecule, how does the outcome read?
Its outcome is “inactive”.

With `N#CSc1ccc([N+](=O)[O-])cc1[N+](=O)[O-]` as the molecule, how does the outcome read?
The outcome was “inactive”.

Which outcome does the source give for `O=C1C2CC=CCC2C(=O)N1SC(Cl)(Cl)C(Cl)Cl` (stereo not given) here?
Its outcome is “inactive”.

Which outcome does the source give for `CC(C)CCCCCCCOP(OCCCCCCCC(C)C)Oc1ccccc1` here?
The outcome was “inactive”.

Which outcome does the source give for `O=[As]c1ccccc1` (stereo not given) here?
The outcome was “inactive”.

From PubChem BioAssay (EPA / NIEHS)
